These are literature values, as cited in patent US10222368B2 (priority 2012, dated 2019).

Protein sequences, listed by entry. Tags and fused reporters are not part of them. Lines headed by an entry give the natural chain unless they say otherwise; changes in a name come on top.
UniProt P41143, whole entry: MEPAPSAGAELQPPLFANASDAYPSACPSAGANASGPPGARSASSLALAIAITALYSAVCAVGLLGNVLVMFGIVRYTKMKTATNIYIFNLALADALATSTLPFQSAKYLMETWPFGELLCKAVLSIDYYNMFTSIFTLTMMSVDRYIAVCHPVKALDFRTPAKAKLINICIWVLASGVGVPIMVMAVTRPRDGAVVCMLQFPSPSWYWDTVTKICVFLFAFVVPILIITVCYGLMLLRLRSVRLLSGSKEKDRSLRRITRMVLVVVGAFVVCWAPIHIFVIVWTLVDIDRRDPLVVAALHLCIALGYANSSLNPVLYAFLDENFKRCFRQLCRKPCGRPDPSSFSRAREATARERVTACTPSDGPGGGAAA
UniProt P35372, whole entry, species assumed: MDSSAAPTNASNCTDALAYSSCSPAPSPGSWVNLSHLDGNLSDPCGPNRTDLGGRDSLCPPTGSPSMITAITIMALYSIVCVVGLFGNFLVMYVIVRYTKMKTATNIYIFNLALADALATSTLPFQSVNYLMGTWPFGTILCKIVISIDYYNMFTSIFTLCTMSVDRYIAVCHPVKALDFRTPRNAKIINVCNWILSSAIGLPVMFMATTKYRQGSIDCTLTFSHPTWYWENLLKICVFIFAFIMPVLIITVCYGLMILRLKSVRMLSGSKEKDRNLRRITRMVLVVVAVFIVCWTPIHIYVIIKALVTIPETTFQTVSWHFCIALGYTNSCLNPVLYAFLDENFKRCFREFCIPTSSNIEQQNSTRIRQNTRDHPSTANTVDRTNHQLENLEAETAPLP
UniProt P41145: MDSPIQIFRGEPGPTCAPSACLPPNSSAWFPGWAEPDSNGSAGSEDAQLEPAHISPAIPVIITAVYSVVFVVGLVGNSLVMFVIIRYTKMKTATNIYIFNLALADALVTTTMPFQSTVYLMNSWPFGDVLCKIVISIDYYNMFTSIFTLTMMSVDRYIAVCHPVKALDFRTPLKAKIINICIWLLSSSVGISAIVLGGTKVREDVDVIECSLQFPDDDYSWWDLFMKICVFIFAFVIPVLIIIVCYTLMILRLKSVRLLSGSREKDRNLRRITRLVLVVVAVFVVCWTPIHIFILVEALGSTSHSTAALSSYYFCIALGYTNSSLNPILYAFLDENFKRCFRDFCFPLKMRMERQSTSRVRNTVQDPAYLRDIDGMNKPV

Conditions in all cases: cited from earlier work
For one data set, the target named is DELTA opioid receptor (Homo sapiens, UniProt P41143).
A further data set deals with MU opioid receptor (Homo sapiens, UniProt P35372). Also on record: key: “−” = antagonist; “+” = agonist; P = partial agonist; “NR” = not reported in the published table.
Another data set concerns the target KAPPA opioid receptor (Homo sapiens, UniProt P41145). Also on record: key: “−” = antagonist; “+” = agonist; P = partial agonist; “NR” = not reported in the published table.

Turning to Naltrindole, the “Opioid receptor activity and relative potency, DELTA” value on DELTA opioid receptor is on record as “− − −”. Also, the “Opioid receptor activity and relative potency, MU” value at MU opioid receptor is recorded as “−”. Also, the “Opioid receptor activity and relative potency, KAPPA” value at KAPPA opioid receptor is given as “−”.
